# Results as given in patent US20090317414A1, “CANCER VACCINE COMPRISING A MUCIN 1 (MUC1) T CELL EPITOPE-DERIVED PEPTIDE” (4G VACCINES PTY LTD, priority 2006, published 2009).
# Target: T1, soluble H-2K^b (Mus musculus, UniProt P01901)
# T1 construct: heavy chain residues 1-274 with C-terminal His-tag and β2-microglobulin residues 1-99; His-tag (C); made in house; host or cells: Drosophila melanogaster cells
# T1 sequence (P01901 22-295): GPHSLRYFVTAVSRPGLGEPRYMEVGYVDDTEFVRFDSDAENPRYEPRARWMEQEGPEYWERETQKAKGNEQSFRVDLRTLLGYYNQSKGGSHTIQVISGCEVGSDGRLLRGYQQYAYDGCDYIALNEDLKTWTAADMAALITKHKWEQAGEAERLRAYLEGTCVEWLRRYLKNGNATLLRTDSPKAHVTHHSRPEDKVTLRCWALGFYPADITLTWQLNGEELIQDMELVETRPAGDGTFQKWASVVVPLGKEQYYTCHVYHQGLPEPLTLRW
# T1 sequence (P01887 21-119 partner): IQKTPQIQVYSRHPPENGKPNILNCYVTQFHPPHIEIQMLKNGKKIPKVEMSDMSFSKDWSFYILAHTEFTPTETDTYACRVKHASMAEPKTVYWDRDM
# Assay: Affinity measurements for binding of peptides to soluble H-2K^b (inhibition assay)
# Experimental: The soluble extracellular domains of H-2K^b (heavy chain […]-terminal His-tag and β2-microglobulin […]. melanogaster cells, under the control of a metallothionein promoter as previously described. Briefly, D. melanogaster cells were expanded to large scale (up to 6 L) in serum free Insect Xpress® media (Cambrex Corporation, East Rutherford, N.J., United States of America) and CuSO4 (625 μM final concentration) was added 3-5 days before harvesting to induce expression of H-2K^b. The supernatant was concentrated using a […] tangential flow concentrator (PALL Corporation, East Hills, N.Y., United States of America) using a 10 kDa MWCO membrane (PALL) and then loaded onto an Ni-NTA column and eluted using 10-250 mM imidazole buffer gradient, pH 7.5. […] Affinity measurements for binding of peptides to soluble H-2K^b molecules were performed as previously described.
structure (smiles),measurement,setting,value
"CC(C)C[C@H](NC(=O)[C@H](C)NC(=O)[C@@H]1CCCN1C(=O)[C@H](Cc1ccc(O)cc1)NC(=O)[C@H](CC(N)=O)NC(=O)CNC(=O)[C@@H]1CCCN1C(=O)[C@H](C)NC(=O)[C@@H](N)Cc1ccccc1)C(=O)O [SEV9, FAPGNYPAL, reference compound]",Kd,KD 4° C.,5 nM
same,Kd,KD 23° C.,3 nM
same,Kd,KD 37° C.,30 nM
